These results are taken from ChEMBL document CHEMBL4138253, “Synthesis and Biological Evaluation of a Series of Bile Acid Derivatives as FXR Agonists for Treatment of NASH” (ACS Med Chem Lett, 2017).

The experiment addresses T1, Bile acid receptor (Homo sapiens) (UniProt Q96RI1).
T1 sequence (whole entry): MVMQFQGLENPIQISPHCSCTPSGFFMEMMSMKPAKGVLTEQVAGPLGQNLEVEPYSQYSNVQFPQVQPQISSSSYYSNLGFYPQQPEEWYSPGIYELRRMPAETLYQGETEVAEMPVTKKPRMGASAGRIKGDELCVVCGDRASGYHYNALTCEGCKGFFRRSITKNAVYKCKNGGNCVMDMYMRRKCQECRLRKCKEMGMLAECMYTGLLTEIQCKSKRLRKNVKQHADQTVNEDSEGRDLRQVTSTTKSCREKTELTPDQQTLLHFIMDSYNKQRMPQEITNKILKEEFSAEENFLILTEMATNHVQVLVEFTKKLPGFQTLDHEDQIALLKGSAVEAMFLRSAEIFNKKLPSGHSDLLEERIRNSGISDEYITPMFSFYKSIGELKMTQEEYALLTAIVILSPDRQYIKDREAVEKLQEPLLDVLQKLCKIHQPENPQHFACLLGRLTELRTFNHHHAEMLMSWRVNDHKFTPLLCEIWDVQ
The experiment in a line: Agonist activity at recombinant human GST-tagged FXR LBD (193 to 472 residues) expressed in baculovirus-infected insect cells assessed as recruitment of biotinylated SRC1 peptide measured after 1 hr by Alphascreen assay relative to CDCA.

`CC[C@H]1[C@@H](O)[C@@H]2[C@H](CC[C@]3(C)[C@@H]([C@H](C)CCC(=O)NCCS(=O)(=O)O)CC[C@@H]23)[C@@]2(C)CC[C@@H](O)C[C@@H]12`: the Efficacy worked out at 131%.
